Test results: doi:10.1101/2025.11.02.686125v3 (bioRxiv, 2025)

Substance: D-cystine-ciprofloxacin-methyl-ester [cys-Cipro]
- Endpoint accumulation (luminescence at 60 min) (Msm (luc) cells): comparable

Substance: Linezolid-cystamine-D-cysteine disulfide [cys-Line]
- Endpoint accumulation (luminescence at 60 min) (Msm (luc) cells): comparable

Substance: Puromycin-cystamine-D-cysteine disulfide [cys-Puro]
- Apparent cytosolic accumulation (luminescence over 60 min) (Mav (luc) cells): highest apparent accumulation

Substance: Rifamycin-cystamine-D-cysteine disulfide [cys-Rifa]
- Endpoint accumulation (luminescence at 60 min) (Msm (luc) cells): slightly higher accumulation
